Experimental data as given in ChEMBL document CHEMBL4229327, “Chemical Approaches to Modulating Complement-Mediated Diseases” (J Med Chem, 2018).

Chains of the proteins cited; added tags and fusions are not shown.
UniProt P00746, whole entry: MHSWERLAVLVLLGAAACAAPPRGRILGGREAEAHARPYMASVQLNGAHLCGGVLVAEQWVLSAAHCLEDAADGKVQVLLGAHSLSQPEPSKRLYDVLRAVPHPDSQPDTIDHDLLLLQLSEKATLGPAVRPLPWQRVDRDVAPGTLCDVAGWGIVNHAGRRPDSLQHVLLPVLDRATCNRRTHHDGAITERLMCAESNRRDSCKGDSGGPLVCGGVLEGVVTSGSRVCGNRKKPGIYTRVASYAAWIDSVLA

What was measured:
[1] = molecular target: T1, Complement factor D (Homo sapiens, UniProt P00746)
[2] = molecular target: T1, Complement factor D; remark: listed apart in the source
[3] = molecular target: T1, Complement factor D; remark: listed apart in the source

- IC50 [1]: 4 nM
- IC50 [2]: 15 nM
- Kd [3]: < 1 nM
SMILES: CC(=O)c1nn(CC(=O)N2C[C@H](F)C[C@H]2C(=O)Nc2cccc(Br)n2)c2ccc(-c3cnc(C)nc3)cc12 [DANICOPAN]
